Literature values in US20160193231A1, “RETT SYNDROME AND TREATMENTS THEREFORE” (RETT SYNDROME RESEARCH TRUST, priority 2013, published 2016).

Test system: synthesis in rat microsomes
Details: cited from earlier work

CC[C@H](C)C(=O)O[C@H]1C[C@@H](C)C=C2C=C[C@H](C)[C@H](CC[C@@H]3C[C@@H](O)CC(=O)O3)[C@H]21 [lovastatin]
IC50: 4.4 nM
